Target: T1, LTA4H (Homo sapiens, UniProt P09960)
T1 sequence (P09960 1-611): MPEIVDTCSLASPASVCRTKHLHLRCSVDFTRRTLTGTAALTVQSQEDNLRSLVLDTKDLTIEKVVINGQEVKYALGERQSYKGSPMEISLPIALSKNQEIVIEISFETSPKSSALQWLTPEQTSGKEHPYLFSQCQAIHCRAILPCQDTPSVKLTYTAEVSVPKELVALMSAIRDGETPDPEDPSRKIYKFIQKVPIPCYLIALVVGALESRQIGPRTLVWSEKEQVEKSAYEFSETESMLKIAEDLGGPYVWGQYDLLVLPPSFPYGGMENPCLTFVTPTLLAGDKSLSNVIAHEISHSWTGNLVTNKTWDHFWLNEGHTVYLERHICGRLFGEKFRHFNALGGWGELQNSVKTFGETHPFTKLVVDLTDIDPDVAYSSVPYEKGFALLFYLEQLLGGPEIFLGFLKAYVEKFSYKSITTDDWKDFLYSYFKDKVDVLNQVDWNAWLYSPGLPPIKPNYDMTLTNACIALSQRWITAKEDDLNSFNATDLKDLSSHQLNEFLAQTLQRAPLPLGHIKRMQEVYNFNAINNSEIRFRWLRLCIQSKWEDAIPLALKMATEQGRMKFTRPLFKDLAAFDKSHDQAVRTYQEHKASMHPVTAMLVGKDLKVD
Assay: Peptidase assay of LTA4H with pNa and AMC conjugates
Format: biochemical
Set-up: made in house; host or cells: Escherichia coli JM101
Details: in parentheses
Procedure: In addition, the aminopeptidase assay was performed with p-nitroanilide (pNa) and 7-amido-4-methylcoumarin (AMC) conjugates containing different N-terminal amino acids. Incubations were carried out with 1 μg LTA4H and 1 mM pNa substrates or 5 µM AMC substrates in 400 μL 10 mM Tris-HCl pH 7.8 containing 100 mM KCl at room temperature for 30 min. The absorbance of released pNa was measured after every 5 min at 405 nm using a TECAN Infinite M200 plate reader. The measurements with AMC derivatives were carried out using a black polystyrene 96-well plate and the fluorescence of released AMC at 360 nm/460 nm (ex/em) was recorded. Specific activities were calculated based on the standard curves of free pNA and AMC (Figure S10). The activation (AC50) or inhibition constants (IC50) were determined using the non-linear regression approach in the GraphPad Prism 9 program.

[1] = vs LTA4H without inhibitor (decrease)
[2] = vs LTA4H without inhibitor (increase)

fold change of specific activity with L-Pro-pNa (vs LTA4H without inhibitor): 1 x
fold change of specific activity with L-Arg-AMC [1]: 3 x
fold change of specific activity with L-Arg-pNa [1]: 94 x
fold change of specific activity with L-Pro-AMC [1]: 2 x
fold change of specific activity with L-Ala-pNa [2]: 8 x
fold change of specific activity with L-Leu-pNa [2]: 12 x
fold change of specific activity with L-Val-pNa [2]: 30 x
Compound: Nc1nc(-c2ccc(Cc3ccccc3)cc2)cs1 [ARM1, 4-(4-benzylphenyl) thiazol-2-amine, reference compound]
